This is an account of results in ChEMBL document CHEMBL1149170, “Khellinone derivatives as blockers of the voltage-gated potassium channel Kv1.3: synthesis and immunosuppressive activity” (J Med Chem, 2004).

Amino acid sequences for entries named in this document (tags omitted).
UniProt P22001, whole entry: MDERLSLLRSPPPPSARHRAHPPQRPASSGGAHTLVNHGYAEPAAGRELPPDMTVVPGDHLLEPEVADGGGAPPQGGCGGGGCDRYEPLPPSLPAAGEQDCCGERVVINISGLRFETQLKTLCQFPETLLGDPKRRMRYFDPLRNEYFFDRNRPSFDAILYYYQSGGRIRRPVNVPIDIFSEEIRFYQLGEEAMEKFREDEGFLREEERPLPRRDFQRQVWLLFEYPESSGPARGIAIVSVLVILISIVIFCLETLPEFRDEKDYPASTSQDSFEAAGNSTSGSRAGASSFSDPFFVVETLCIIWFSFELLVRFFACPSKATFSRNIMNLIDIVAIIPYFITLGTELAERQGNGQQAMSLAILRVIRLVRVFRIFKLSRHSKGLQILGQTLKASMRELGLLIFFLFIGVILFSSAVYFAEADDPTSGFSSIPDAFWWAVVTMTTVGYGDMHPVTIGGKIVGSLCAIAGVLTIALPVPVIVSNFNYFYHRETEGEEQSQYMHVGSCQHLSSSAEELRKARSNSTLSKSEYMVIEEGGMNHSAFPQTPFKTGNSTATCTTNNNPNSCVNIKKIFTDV

The target in this test is Potassium voltage-gated channel subfamily A member 3 (Homo sapiens, UniProt P22001). The experiment in a line: Dissociation constant for the blockage of voltage-gated potassium channel subunit Kv1.3 in human lymphocytes. The class given is cell-based.

Usually Kd stands for the free concentration of one partner at which half of the binding sites on the other are occupied at equilibrium, for simple one-to-one binding. Higher therefore signals a looser complex. `COc1c(O)c(C(=O)CCc2ccccc2)c(OC)c2c1OCC2` gave a Kd of 1.5 µM.
